Assay results: the NIST ThermoML archive (doi:10.1016/j.fluid.2015.05.002)

Conditions: Liquid; for vapor or sublimation pressure: Closed cell (Static) method

CCCCOCCCC [dibutyl ether]
Conditions	mass density [kg/m3]
298 K, 101.33 kPa, Vibrating tube method	763.8 ± 0.2

Conditions	vapor or sublimation pressure [kPa]
430.15 K	159 ± 1
435.15 K	178 ± 1
440.15 K	200 ± 1
445.15 K	224 ± 1
450.15 K	251 ± 1
453.15 K	267 ± 1
458.15 K	297 ± 1
463.15 K	329 ± 1
468.15 K	363 ± 1
473.15 K	401 ± 1
483.15 K	486 ± 1
493.15 K	584 ± 1
503.15 K	696 ± 2
508.15 K	758 ± 2

± gives the expanded uncertainty stated by the source.
